Apparent affinities of Ab-14 variants for a coronavirus HR2 peptide

Antigen: PDVDLGDISGINAS, a 14-residue peptide of the SARS-CoV-2 spike HR2 region.

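Phage display of a naive human antibody library on the peptide gave the parent. This is the validation round: designs drawn from the data on random variants, tested in the same kind of assay. Their group label is 14H_GP_Gibbs (GP: Gaussian process model; Gibbs: Gibbs sampling; a sequence that several methods proposed may carry one label only). AlphaSeq pools MATa yeast showing the antibodies with MATalpha yeast showing the peptide. Pairs that bind mate more often; barcode pairs of the diploids are counted by sequencing. The ratio of observed to expected reads was calibrated, replicate by replicate, on BCL2-family standards whose Kd was known from biolayer interferometry. Mating was done six times.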

The variants keep the light chain, the linker and the frameworks of Ab-14 (scFv order VH, a 15-residue (Gly4Ser)3 linker, VL).
VH: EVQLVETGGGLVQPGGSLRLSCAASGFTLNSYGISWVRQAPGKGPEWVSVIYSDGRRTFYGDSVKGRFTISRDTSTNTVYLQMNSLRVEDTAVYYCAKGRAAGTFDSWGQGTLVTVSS
VL: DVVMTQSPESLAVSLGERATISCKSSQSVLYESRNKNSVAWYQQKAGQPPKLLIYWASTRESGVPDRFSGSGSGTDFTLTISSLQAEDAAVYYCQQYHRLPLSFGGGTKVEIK

Substitutions are numbered in sequence along the VH above, starting at 1 (not Kabat).
Values are log10 of the apparent Kd in nM; lower means stronger binding.
An entry "n.d." has no value in the source: the pair was not observed among the diploids in that replicate. This suggests poor binding but is not conclusive.

| changes | log10 Kd, replicates | control signals |
|---|---|---|
| T28D/G61Q/S63K/R100Q/S107D | 0.68 0.30 0.41 0.28 0.79 1.42 | 0 of 18 |
| T28S/G61S/A101V/S107Q | -0.60 -0.63 -0.47 0.30 -0.69 -0.44 | 0 of 18 |
| T28D/F59A/S63N/A101T | -0.34 -0.58 -0.05 -0.34 -0.46 -0.24 | 0 of 18 |
| T28R/S31E/A101Q | n.d. -0.22 0.80 0.42 0.11 n.d. | 0 of 18 |
| T28E/S31E/G61D/R100K/S107T | 0.17 0.07 0.06 -0.18 0.07 0.17 | 1 of 18 (2.80) |
| S63D/R100E/S107K | 0.58 1.52 n.d. 1.04 0.17 0.61 | 0 of 18 |
| T28N/G61I/S63E/A101T | 0.76 0.53 0.73 0.49 0.63 0.90 | 0 of 18 |
| T28S/G61C/S63Q/R100K/A101T | n.d. n.d. n.d. n.d. n.d. n.d. | 0 of 18 |
| T28G/S31E/S63A/A101T/S107T | n.d. 0.17 n.d. n.d. 1.23 -0.28 | 0 of 18 |
| G61V/R100Q/A101T/S107V | 1.64 2.15 1.07 n.d. 1.12 0.72 | 0 of 18 |
| T28E/S63N/R100E/A101T | 0.03 1.05 0.21 -0.04 0.23 0.34 | 1 of 18 (1.86) |
| T28D/F59M/G61T/R100Q | 0.89 0.89 1.14 0.47 0.31 0.04 | 1 of 18 (1.19) |
| T28N/S31E/S63Q/R100K | n.d. 0.18 -0.14 -0.28 0.60 0.81 | 0 of 18 |
| N30K/S53A/S63D | -0.20 0.53 0.81 0.69 -0.55 -0.31 | 0 of 18 |
| T28E/R56M/G61V/A101T | 2.18 1.26 1.72 1.18 0.76 1.89 | 1 of 18 (1.94) |
| T28D/S31N/A101T/S107T | 0.15 0.07 0.03 -0.56 -0.24 -0.30 | 0 of 18 |
| T28C/S31E/G61I/R100K | n.d. n.d. n.d. n.d. n.d. n.d. | 0 of 18 |
| N30E/S53A/R100Q/S107C | n.d. n.d. n.d. 1.06 2.14 n.d. | 0 of 18 |
| S31E/R56K/G61S/R100K | 0.34 0.09 0.21 1.14 0.20 0.48 | 0 of 18 |
| T28Q/S31E/G61A/R100T | 0.27 0.21 -0.22 0.50 -0.37 0.34 | 1 of 18 (0.55) |
| R100K/A101E/S107A | -0.09 -0.32 -0.39 -0.26 -0.27 0.20 | 0 of 18 |
| T28N/S63R/R100W/A101T | n.d. n.d. n.d. n.d. n.d. n.d. | 0 of 18 |
| T28S/G61L/R100K/A101T | 0.70 n.d. 0.46 n.d. n.d. 2.16 | 0 of 18 |
| G26K/T28S/N30E/R100Q | n.d. n.d. 1.01 n.d. n.d. n.d. | 0 of 18 |
| G26K/T28S/G61A/A101L/S107T | n.d. 1.28 1.27 0.48 1.07 0.82 | 0 of 18 |
| T28Q/A101E/S107V | 1.30 0.46 0.74 0.57 0.20 0.78 | 1 of 18 (1.07) |
| T28E/S31N/S63W/A101T | n.d. n.d. n.d. n.d. n.d. n.d. | 0 of 18 |
| T28S/S31E/D106H/S107K | n.d. n.d. n.d. n.d. n.d. n.d. | 0 of 18 |
| T28V/S53A/S63Q/A101T | 0.77 0.56 n.d. n.d. 0.81 n.d. | 0 of 18 |
| T28Q/S31E/G61Q/R100Q | 0.76 0.24 0.24 0.45 0.33 0.49 | 1 of 18 (3.62) |
| T28S/S31E/G61A/S63D/R100K | 0.08 -0.09 -0.23 -0.05 0.03 0.03 | 1 of 18 (2.64) |
| T28V/G61A/S63Q/R100Q/A101T | 2.55 0.96 1.42 2.16 1.60 1.70 | 0 of 18 |
| T28M/G61K/R100Q/A101T | 0.74 1.36 1.42 0.31 1.06 1.71 | 0 of 18 |

Repeated from above, the 2 best binders with a signal in all replicates:

| changes | log10 Kd, replicates | control signals |
|---|---|---|
| T28S/G61S/A101V/S107Q | -0.60 -0.63 -0.47 0.30 -0.69 -0.44 | 0 of 18 |
| T28D/F59A/S63N/A101T | -0.34 -0.58 -0.05 -0.34 -0.46 -0.24 | 0 of 18 |

Empty control strains, which show no peptide, gave a signal in 1% of pairings with all heavy chain designs; the median was 2.08 and 95% of these signals were weaker than 0.84. No background was subtracted. For each scFv, signals with the empty controls are counted beside the result, with their mean in brackets.
The range of this assay differs from that of the first round, and the authors advise against merging the two.
Of ten entries with the parent sequence, four were seen in most replicates (averages 0.34 to 2.37), three in one and three in none, so single entries are noisy.
In the paper, a design with two or fewer of six values counts as a poor binder.

From the AlphaSeq antibody data of Li et al. 2023 (doi:10.1038/s41467-023-39022-2), copy in the FLAb collection.